Compound activity from PubChem BioAssay.
FGF22 binding = binders of recombinant human FGF22 by thermal shift; Q9HCT0; SYPRO orange fluorescence; percent of sucrose octasulfate shift, DMSO zero; activity (Tm shift, normalised), % at 9.99 µM; actives 1.5% (n = 340,000);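 active = mean Tm shift, scaled 0 neutral to 100 positive control, at about 1.3% or above, every replicate too, limit read from the data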
PDI turbidity = PDI (human) enzyme inhibition; PDI insulin aggregation turbidity, A650, 90 min; inhibition, % at 10 µM; actives 0.052% (n = 350,000); AID 588391;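 active = mean inhibition across replicates of 30% or more, whatever share of single replicates reach that level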
ARNT TACC3 PPI = disrupts binding between human ARNT and TACC3; Q9Y6A5; AlphaScreen His-ARNT PAS-B/GST-TACC3 binding, luminescence; TACC3 fragment carries E629A point mutation; inhibition, % at 9.99 µM; actives 0.66% (n = 390,000); AID 623870;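 active = mean inhibition of replicates at least 50% and at least half of replicates each reaching 50%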;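 note: 0% = complete ARNT plus TACC3 wells and 100% = ARNT alone without TACC3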
ERp5 inh = inhibitors of human ERp5; ERp5 insulin aggregation, absorbance 650 nm, 90 min; inhibition, % at 9.99 µM; actives 0.05% (n = 350,000); AID 651711;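 active = mean replicate inhibition above about 25%, with every replicate also reaching it, limit read from the data, passing the limit was not always enough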
PglD DTNB = inhibitors of Campylobacter jejuni PglD acetyltransferase; purified PglD enzyme, DTNB colorimetric CoA detection; actives 0.098% (n = 360,000); inhibition, % at 12.5 µM; in the data active = inhibition above about 16%, passing the limit was not always enough
Yeast UUG start = modulators of start codon recognition fidelity in yeast; AID 602363; activity score, % at 18.7 µM; S. cerevisiae UUG-firefly luciferase reporter, luminescence/redox ratio; 0.13% of 350,000 active;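 active = replicate mean at a twofold rise or more, about +100% in these data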;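 note: firefly luciferase made from a UUG start codon reports start codon fidelity; reporter light over untreated wells divided by growth signal over untreated wells; some hits fall short of that in this replicate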
Active calls of the source: *; . = no result. This is a sample that favours compounds with a hit; in the whole collection about 1.9% have one here.

1. COc1cccc(S(=O)(=O)N(C)C[C@@H]2Oc3cc(C#CCN(C)C)ccc3S(=O)(=O)N([C@H](C)CO)C[C@H]2C)c1
2. O=C(NNC(=O)c1ccc2ccccc2c1)c1cccc(F)c1
3. O=C(NNC(=O)c1cccc2ccccc12)c1cccc(F)c1
4. CCc1cccc(CC)c1NC(=S)NC(C)c1ccccc1 (stereo not given)
5. C[C@@H]1CN([C@H](C)CO)C(=O)c2cc(NC(=O)Nc3cccc4ccccc34)ccc2O[C@@H](C)CCCCO[C@@H]1CN(C)CC1CCCCC1
6. CC(CN1C(C)CCCC1C)OC(=O)c1ccc(Cl)cc1 (stereo not given)
7. CCN(CCn1cccn1)Cc1nc(-c2ccccc2)no1
8. CCN(CCn1cccn1)Cc1nc(-c2ccc(OC)cc2)no1
Screen / compound no.	1	2	3	4	5	6	7	8
FGF22 binding	0	1	43*	44*	0	44*	0	43*
PDI turbidity	.	7	-7	-2	.	4	3	5
ARNT TACC3 PPI	1	-6	10	2	0	-10	-2	-5
ERp5 inh	-3	-3	2	-6	-5	1	-1	-4
PglD DTNB	13	-7	9	.	2	.	.	7
Yeast UUG start	11	-7	-1	.	9	.	.	-14

9. Cc1ccc(C(=O)Nc2cccc(C(F)(F)F)c2)cc1NC(=O)c1c[nH]c2cc(C(F)(F)F)ccc2c1=O
10. CCN1CCN(Cc2ccc(NC(=O)c3ccc(C)c(NC(=O)c4c[nH]c5cc(C(F)(F)F)ccc5c4=O)c3)cc2C(F)(F)F)CC1
11. C[C@@H]1CN([C@@H](C)CO)C(=O)c2cc(NC(=O)c3ccncc3)ccc2O[C@H]1CN(C)Cc1ccc2c(c1)OCO2
12. COc1ccccc1-n1c(SCC(=O)O)nc2c(sc(=S)n2-c2ccc(Cl)c(C)c2)c1=O
13. Cc1cc(-n2c(=S)sc3c(=O)n(-c4ccc(F)cc4)c(SCC(=O)O)nc32)ccc1Cl
14. CN(C(=O)COC(=O)/C=C/c1cn(-c2ccccc2)nc1-c1ccc2c(c1)OCCO2)C1CCS(=O)(=O)C1 (stereo not given)
15. O=C(COC(=O)/C=C/c1cn(-c2ccccc2)nc1-c1ccc2c(c1)OCCO2)NC1CCS(=O)(=O)C1 (stereo not given)
16. O=Cc1ccc(F)c([B-](F)(F)F)c1
Screen / compound no.	9	10	11	12	13	14	15	16
FGF22 binding	44*	0	.	1	0	43*	0	43*
PDI turbidity	11	-1	.	1	3	-2	-3	-1
ARNT TACC3 PPI	-8	-7	-6	-8	22*	-6	-1	-9
ERp5 inh	2	1	-1	-5	4	-3	5	2
PglD DTNB	1	0	-2	-1	0	.	4	1
Yeast UUG start	-11	-3	-5	-19	-2	.	0	-24

17. O=Cc1ccc2noc(-c3ccc(F)cc3)c2c1
18. Cc1noc(C)c1NC(=O)Nc1ccc2c(c1)C(=O)N([C@H](C)CO)C[C@H](C)[C@H](CN(C)C(=O)Nc1ccc(F)cc1)OCCCC[C@@H](C)O2
19. Cc1ccccc1NC(=O)C1=CC=CN2CCS(=O)(=O)N=C12
20. CCCCN(C(=O)C1=CC=CN2CCS(=O)(=O)N=C12)c1ccccc1
21. O=C(/C=C/c1ccc(S(=O)(=O)N2CCOCC2)cc1)NC(=S)Nc1ccc(Cl)cc1Cl
22. C[C@H]1CN([C@@H](C)CO)C(=O)c2cccc(NC(=O)C3CC3)c2O[C@@H]1CN(C)C(=O)Nc1cccc2ccccc12
23. COc1cc(CN2CC3(CCN(S(=O)(=O)c4cccs4)CC3)c3c(n(C)c4cc(OC)ccc34)[C@H]2CO)cc(OC)c1
24. CC(C)NC(=O)N(C)C[C@@H]1Oc2cc(C#Cc3ccccn3)ccc2S(=O)(=O)N([C@H](C)CO)C[C@H]1C
Screen / compound no.	17	18	19	20	21	22	23	24
FGF22 binding	.	0	0	0	43*	1	0	0
PDI turbidity	-17	.	-4	37*	17	.	.	.
ARNT TACC3 PPI	-2	0	-4	26	.	7	.	3
ERp5 inh	.	2	-1	1	-9	-4	-7	1
PglD DTNB	-7	1	2	-5	.	4	.	4
Yeast UUG start	-41	2	-14	-4	.	-2	.	5

Full records, looked up by structure. Screens in order: FGF22 binding, PDI turbidity, ARNT TACC3 PPI, ERp5 inh, PglD DTNB, Yeast UUG start
Shown for `O=Cc1ccc2noc(-c3ccc(F)cc3)c2c1` = ., -17, -2, ., -7, -41
Shown for `Cc1ccccc1NC(=O)C1=CC=CN2CCS(=O)(=O)N=C12` = 0, -4, -4, -1, 2, -14

Going on with the list:
25. O=C(CN1CC(=O)Oc2ccccc21)OCC(=O)c1ccc(F)cc1
26. O=C1CN(CC(=O)N2CCCCC2)c2ccccc2O1
27. O=C(CN1CC(=O)Oc2ccccc21)OCC(=O)c1ccc(Br)cc1
28. c1ccc(-n2nnnc2SCc2ccccn2)cc1
29. Cc1nnc(SCc2cccc3ccccc23)n(N)c1=O
30. Nn1c(SCc2ccccn2)nncc1=O
31. Cc1nnc(SCc2ccccn2)n(N)c1=O
32. Cc1noc(C)c1NC(=O)Nc1ccc2c(c1)C(=O)N([C@@H](C)CO)C[C@H](C)[C@@H](CN(C)CC1CC1)OCCCC[C@H](C)O2
Screen / compound no.	25	26	27	28	29	30	31	32
FGF22 binding	0	.	.	.	0	0	0	0
PDI turbidity	-3	19	2	6	-3	0	1	.
ARNT TACC3 PPI	63*	22	71*	-9	-4	56*	active	-6
ERp5 inh	-10	.	.	.	6	3	2	6
PglD DTNB	.	-10	4	4	-51	.	.	3
Yeast UUG start	.	-20	-20	-16	-13	.	.	.

33. C[C@@H]1CN([C@@H](C)CO)C(=O)Cc2cc(NS(C)(=O)=O)ccc2O[C@H]1CN(C)Cc1ccc(C(F)(F)F)cc1
34. C[C@@H]1CN([C@H](C)CO)C(=O)c2cc(NS(=O)(=O)c3ccc(Cl)cc3)ccc2O[C@@H](C)CCCCO[C@@H]1CN(C)C
35. COC(=O)c1cc(NC(=O)c2cccs2)ccc1N1CCOCC1
36. O=C(Nc1ccc(N2CCOCC2)c(F)c1)c1cccs1
37. O=C(NCCCN1CCOCC1)[C@@H]1N[C@@H]2c3ccc(C4=CCCC4)c(=O)n3C[C@@H]2[C@H]1CO
38. O=C(CSc1ccc2nnc(-c3ccccc3)n2n1)NCc1ccco1
39. O=C(CSc1ccc2nnc(-c3ccccn3)n2n1)NCc1ccco1
40. C/C=C/c1cnc2c(c1)C(=O)N([C@H](C)CO)C[C@H](C)[C@H](CN(C)Cc1cccc(C(=O)O)c1)O2
Screen / compound no.	33	34	35	36	37	38	39	40
FGF22 binding	.	0	43*	0	0	.	0	0
PDI turbidity	.	.	-6	-3	.	4	6	.
ARNT TACC3 PPI	-6	-5	-8	0	-8	1	61*	7
ERp5 inh	4	-1	0	-6	-3	.	1	5
PglD DTNB	-3	-2	.	0	-2	-2	0	0
Yeast UUG start	-8	18	.	-22	.	-12	-24	.

41. Oc1ccccc1C=NNC(=S)Nc1ccc(F)cc1
42. O=C(CCC(=O)Nc1ccc(F)cc1)N/N=C/c1ccccc1O
43. COc1ccc(/C=N/OC(=O)Nc2ccccc2OC)cc1
44. COc1ccc(NC(=O)O/N=C/c2ccc(Br)cc2)cc1
45. CN(C)c1nc(N/N=C/c2ccccc2O)nc(Nc2ccc(F)cc2)n1
46. COc1ccc(C=NNC(=S)Nc2ccc(F)cc2)cc1OC
47. CN(C)c1nc(Nc2ccc(F)cc2)nc(Oc2ccc(F)cc2)n1
Screen / compound no.	41	42	43	44	45	46	47
FGF22 binding	0	0	43*	0	1	65*	0
PDI turbidity	0	-1	-1	8	-4	-1	8
ARNT TACC3 PPI	active	31	-12	.	47*	4	-6
ERp5 inh	-5	0	1	-1	-6	-1	5
PglD DTNB	2	.	.	.	.	-2	-3
Yeast UUG start	-25	.	.	.	.	-11	1

Arranged by length of the SMILES (largest number first): some entries from above.
42. O=C(CCC(=O)Nc1ccc(F)cc1)N/N=C/c1ccccc1O
44. COc1ccc(NC(=O)O/N=C/c2ccc(Br)cc2)cc1
46. COc1ccc(C=NNC(=S)Nc2ccc(F)cc2)cc1OC
Screen / compound no.	42	44	46
FGF22 binding	0	0	65*
PDI turbidity	-1	8	-1
ARNT TACC3 PPI	31	.	4
ERp5 inh	0	-1	-1
PglD DTNB	.	.	-2
Yeast UUG start	.	.	-11
